Measurements as given in paper PMC4440699 (MedChemComm, 2014).

Key:
[1] = system: acetylated H3K9; conditions: MV-4-11 cells, Western blot
[2] = under the same conditions; cited from earlier work

O=C(CCCCCCC(=O)Nc1ccccc1)NO [SAHA, suberanilohydroxamic acid]
histone H3K9 acetylation ([1]; 0.1 μM): moderate H3K9 acetylation
histone H3K9 acetylation ([1]; 0.5 μM): promoted histone H3K9 acetylation
KA, binding to Zn^++ [2]: 403 M⁻¹
ΔG, binding to Zn^++ [2]: -3.59 kcal/mol

Read-outs that look alike come from different tables or passages of the source.
